From publication PMC2850566 (Biochemical pharmacology, 2010)
Read-outs that look alike come from different tables or passages of the source.

What was measured:
[1] = biological target: T1, human β2-AR (Homo sapiens, UniProt P07550); experiment: van't Hoff analysis of binding thermodynamics; details: for Quadrant in the TΔS° and ΔH° plot: classification after Borea et al.; for Intercept of van't Hoff relation / Slope of van't Hoff relation: linear regression, 4-37°C; for Intercept of van't Hoff relation / Slope of van't Hoff relation / ΔH° / ΔS°: ± SE
[2] = biological target: T1, human β2-AR; details: for Hill's coefficient (n): ± SD; for Hill coefficients: all binding experiments, 4-37°C

| SMILES | Quadrant in the TΔS° and ΔH° plot [1] | Intercept of van't Hoff relation [1] | Slope of van't Hoff relation [1] | ΔH° [1] | ΔS° [1] | Hill's coefficient (n) ([2]; 4°C) | Hill's coefficient (n) ([2]; 15°C) | Hill's coefficient (n) ([2]; 25°C) | Hill's coefficient (n) ([2]; 30°C) | Hill's coefficient (n) ([2]; 37°C) | Hill coefficients [2] |
| --- | --- | --- | --- | --- | --- | --- | --- | --- | --- | --- | --- |
| C[C@@H](Cc1ccc(O)cc1)NC[C@H](O)c1cc(O)cc(O)c1 [(R,S')-fenoterol] | purely entropy controlled process | 16.03 ± 0.68 | −856 ± 201 | 7.1 ± 1.7 kJ/mol | 0.133 ± 0.006 kJ/mol/K | 1.05 ± 0.18 | 1.08 ± 0.19 | 1.12 ± 0.11 | 1.16 ± 0.04 | 1.21 ± 0.14 | ~1.0 |
| C[C@H](Cc1ccc(O)cc1)NC[C@@H](O)c1cc(O)cc(O)c1 [(S,R')-fenoterol] | enthalpy-entropy driven process | 3.25 ± 1.59 | 2768 ± 469 | -23.0 ± 3.9 kJ/mol | 0.027 ± 0.013 kJ/mol/K | 1.62 ± 0.38 | 1.95 ± 0.04 | 1.63 ± 0.24 | 1.57 ± 0.31 | 1.63 ± 0.25 | greater than 1.0 |
